Read-outs that look alike come from different tables or passages of the source.
How the values were obtained:
[1] = mouse, in vivo
[2] = mouse, in vivo; remark: listed apart in the source

branched poly(ethylene glycol)-b-poly(L-lysine) [PEGasus-PLL]
amount of mRNA accumulated in the heart [1]: significantly increased
improvement of the amount of mRNA delivered to the brain versus micelles alone [1]: ≥ 5 times
amount of mRNA accumulated in the kidneys ([1]; ip): about 5%
amount of mRNA accumulated in the liver ([1]; ip): ~10%
amount of mRNA accumulated in the heart [2]: significantly increased
amount of mRNA accumulated in the lungs [2]: significantly increased
amount of mRNA accumulated in the spleen [2]: significantly increased
amount of mRNA accumulated in the kidneys ([2]; iv): ≤ 4%
